One assay has as its target CDK7 (Homo sapiens, UniProt P50613). Nature of the assay: Adapta kinase assay (Life Technologies) against CDK7, co-factors cyclin H and MNAT1. The note with it: read-out: CDK7 Inhibition.
A further assay concerns Jurkat. Kind of assay: Inhibition of cell proliferation, CellTiter-Glo, 72 hour. Format: cell-based. The note with it: read-out: Inhibition of Proliferation of Jurkat Cells, Blood cancer cell line. The protocol:
The following cancer cell lines were tested with the media conditions indicated: […]
For orientation: In ATP-based viability assays light output follows the ATP content of the culture.

Protein sequences, listed by entry. Tags and fused reporters are not part of them.
UniProt P50613, whole entry: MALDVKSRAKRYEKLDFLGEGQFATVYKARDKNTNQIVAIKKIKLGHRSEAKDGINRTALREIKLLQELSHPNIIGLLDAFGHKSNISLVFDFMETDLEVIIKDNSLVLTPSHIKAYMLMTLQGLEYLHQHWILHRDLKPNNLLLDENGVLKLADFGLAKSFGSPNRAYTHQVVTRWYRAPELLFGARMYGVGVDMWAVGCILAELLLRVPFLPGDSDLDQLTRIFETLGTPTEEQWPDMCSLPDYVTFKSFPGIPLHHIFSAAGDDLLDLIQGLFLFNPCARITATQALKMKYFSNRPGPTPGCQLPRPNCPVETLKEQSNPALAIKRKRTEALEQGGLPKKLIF
UniProt P51948, whole entry partner: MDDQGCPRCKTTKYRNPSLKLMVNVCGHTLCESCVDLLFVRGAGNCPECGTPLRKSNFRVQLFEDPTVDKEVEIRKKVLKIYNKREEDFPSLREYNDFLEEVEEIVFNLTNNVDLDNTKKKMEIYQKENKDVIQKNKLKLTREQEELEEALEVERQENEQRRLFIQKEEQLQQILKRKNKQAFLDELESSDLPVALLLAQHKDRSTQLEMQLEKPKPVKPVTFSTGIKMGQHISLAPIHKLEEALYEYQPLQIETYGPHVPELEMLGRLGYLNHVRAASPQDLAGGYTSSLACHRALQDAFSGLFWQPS
UniProt P51946, whole entry partner: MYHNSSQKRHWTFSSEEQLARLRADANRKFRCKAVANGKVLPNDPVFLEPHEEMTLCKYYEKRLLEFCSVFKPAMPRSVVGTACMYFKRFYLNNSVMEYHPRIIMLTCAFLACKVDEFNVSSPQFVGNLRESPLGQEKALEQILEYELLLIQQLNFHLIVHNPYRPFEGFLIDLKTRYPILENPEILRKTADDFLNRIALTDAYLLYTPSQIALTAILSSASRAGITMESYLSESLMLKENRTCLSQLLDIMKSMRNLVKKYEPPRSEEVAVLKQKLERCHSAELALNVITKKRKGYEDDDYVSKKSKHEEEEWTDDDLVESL

On to `COc1ccc(Cn2c(-c3ccc(N)cc3)nc3cc(Nc4ncc(Cl)c(-c5c[nH]c6ccccc56)n4)ccc32)cc1`, for which the IC50 at CDK7 was 100 to 1000 nM; in the assay with Jurkat it was 500 to 5000 nM.

With `CN(C)C/C=C/C(=O)Nc1cccc(Nc2ncc(Cl)c(-c3c[nH]c4ccccc34)n2)c1`, the IC50 on CDK7 is less than 100 nM; in the assay with Jurkat, 500 to 5000 nM.

Consider `Nc1ccc(-c2nc3ccc(Nc4ncc(Cl)c(-c5c[nH]c6ccccc56)n4)cc3o2)cc1`, for which the IC50 was greater than 1000 nM at CDK7 and greater than 5000 nM with Jurkat.

On to `Nc1ccc(C(=O)NCCCNc2ncc(Cl)c(-c3c[nH]c4ccccc34)n2)cc1`, for which, at CDK7, the IC50 fell in the range of 100 to 1000 nM.

Regarding `CN(C)CCCC(=O)Nc1cccc(Nc2ncc(Cl)c(-c3c[nH]c4ccccc34)n2)c1`, the IC50 was less than 100 nM at CDK7 and 500 to 5000 nM with Jurkat.

As for `CN(C)C/C=C/C(=O)N(C)Cc1ccc(CN2CCC(Nc3ncc(Cl)c(-c4c[nH]c5ccccc45)n3)CC2)cc1`, the figures for the IC50 at CDK7 and in the assay with Jurkat were less than 100 nM and less than 500 nM, respectively.

`CN(C)CCCC(=O)Nc1ccc(CN2CCC(Nc3ncc(Cl)c(-c4c[nH]c5ccccc45)n3)CC2)cc1`: the IC50 at CDK7 was in the range of 100 to 1000 nM; with Jurkat, 500 to 5000 nM.

For `Nc1ccc(C(=O)N2CCC(Nc3ncc(C4CC4)c(-c4c[nH]c5ccccc45)n3)CC2)cc1`, the IC50 on CDK7 is greater than 1000 nM.

For the compound `Nc1ccc(C(=O)N2CCC(Nc3ncc(Cl)c(-c4c[nH]c5ncccc45)n3)CC2)cc1`, the IC50 was less than 100 nM at CDK7 and 500 to 5000 nM in the assay on Jurkat.

Consider `CN(C)C/C=C/C(=O)NCc1ccc(CN2CCC(Nc3ncc(Cl)c(-c4c[nH]c5ccccc45)n3)CC2)cc1`, for which the IC50 on CDK7 is less than 100 nM; in the assay with Jurkat, 500 to 5000 nM.

For the compound `CN(C)CCCC(=O)N(C)c1cccc(CN2CCC(Nc3ncc(Cl)c(-c4c[nH]c5ccccc45)n3)CC2)c1`, the IC50 on CDK7 is 100 to 1000 nM; in the assay with Jurkat, greater than 5000 nM.

Regarding `CN(C)C/C=C/C(=O)NCCC(=O)Nc1cccc(Nc2ncc(Cl)c(-c3c[nH]c4ccccc34)n2)c1` [Compound 131, (E)-N-(3-(3-(5-chloro-4-(1H-indol-3-yl)pyrimidin-2-ylamino)phenylamino)-3-oxopropyl)-4-(dimethylamino)but-2-enamide], the IC50 was less than 100 nM on CDK7 and 500 to 5000 nM with Jurkat.

Consider `NCCCCC(=O)Nc1cccc(Nc2ncc(Cl)c(-c3c[nH]c4ccccc34)n2)c1`, for which the IC50 on CDK7 is less than 100 nM; in the assay with Jurkat, 500 to 5000 nM.

For the compound `Cc1cnc(NC2CCN(C(=O)c3ccc(N)cc3)CC2)nc1-c1c[nH]c2ccccc12`, the IC50 on CDK7 was less than 100 nM; with Jurkat it was less than 500 nM.

Take `CC(C)(CNC(=O)c1ccc(N)cc1)CNc1ncc(Cl)c(-c2c[nH]c3ccccc23)n1`: the IC50 on CDK7 was greater than 1000 nM; in the assay on Jurkat, greater than 5000 nM.

With `CN(C)C/C=C/C(=O)NCCCCC(=O)Nc1cccc(Nc2ncc(Cl)c(-c3c[nH]c4ccccc34)n2)c1`, the figures for the IC50 at CDK7 and in the assay on Jurkat were less than 100 nM and 500 to 5000 nM, respectively.

The values above are taken from patent publication US20190292167A1, “HETEROAROMATIC COMPOUNDS USEFUL FOR THE TREATMENT OF PROLIFERATIVE DISEASES” (Syros Pharmaceuticals, Inc., priority 2013, published 2019).
